Patent publication US5703106A, “Antagonists of endothelin receptors” (priority 1994, dated 1997)

Amino acid sequences for entries named in this document (tags omitted). Residues count along the entry.
UniProt Q29010, 21-427: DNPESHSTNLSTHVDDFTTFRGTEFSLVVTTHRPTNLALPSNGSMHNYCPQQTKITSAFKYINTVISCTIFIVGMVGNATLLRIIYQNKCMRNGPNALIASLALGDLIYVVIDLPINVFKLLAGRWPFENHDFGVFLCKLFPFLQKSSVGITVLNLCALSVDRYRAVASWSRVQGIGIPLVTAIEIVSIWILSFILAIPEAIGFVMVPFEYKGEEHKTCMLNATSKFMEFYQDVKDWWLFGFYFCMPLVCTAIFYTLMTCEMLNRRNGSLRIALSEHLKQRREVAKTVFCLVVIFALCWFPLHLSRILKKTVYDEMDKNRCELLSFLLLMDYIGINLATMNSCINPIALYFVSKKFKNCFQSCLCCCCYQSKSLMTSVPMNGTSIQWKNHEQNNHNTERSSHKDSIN

Target: T1, ETA receptor (Sus scrofa, UniProt Q29010)
T1 construct: The plasma membrane of porcine lung (2 mg of protein); from tissue; host or cells: porcine lung plasma membrane
Test: Scatchard analysis of radioligand binding, ETA receptor
Conditions: porcine lung plasma membrane
Method: The plasma membrane of porcine lung (2 mg of protein) is incubated at 37° C. for 1 hour with 30 pM [^125 I]ET-1 or 10 pM [^125 I]ET-3 in the absence or presence of various amounts of nonlabeled ligands in a total volume of 1 ml of 20 mM HEPES (pH 7.4), containing 145 mM NaCl, 5 mM KCl, 3 mM MgCl2, 1 mM EGTA 1 mg/ml bovine serum albumin, and 0.2 mg/ml bacitracin. After the incubation, unbound [^125 I]ETs were separated by centrifugation at 20,000×g for 20 min at 4° C. followed by aspiration of the supernatant. The radioactivity in the membrane pellet is measured in Wallac-1470 Wizard autogamma counter (Pharmacia). Nonspecific binding is defined as membrane-associated radioactivity in the presence of saturating concentrations of ETs (100 nM). Nonspecific binding is subtracted from the total binding and the difference is defined as specific binding. Total binding is always less than 15% of the total radioactivity added. The binding to the ETA receptor is determined with [^125 I]ET-1 in the presence of 1 nM nonlabeled ET-3 and the binding to the ETB receptor with [^125 I]ET-3 alone. […] From the inhibition curves for the binding of [^125 I]ETs, the apparant binding affinity constant (Ki) of one of the test compounds is calculated as a parameter of the affinity for the ETA and ETB receptors, as shown in the following table.

[^125 I]ET-1: radiolabelled endothelin-1 purchased from Amersham International; ETs are vasoactive peptides with 21 amino acid residues
maximum binding sites (Bmax) (in the presence of 1 nM nonlabeled ET-3): 342 fmol/mg protein
Kd (in the presence of 1 nM nonlabeled ET-3, read-out: apparant dissociation constant (Kd)): 0.044 nM
